Measurements: patent publication US20130324532A1 (published 2013)

The chains behind the UniProt entries cited, without tags or fusion partners. A line that says so, or that is headed by a name, gives the form on record, which may keep a tag or linker. Residues count along the entry.
UniProt Q05397, 411-686, species assumed: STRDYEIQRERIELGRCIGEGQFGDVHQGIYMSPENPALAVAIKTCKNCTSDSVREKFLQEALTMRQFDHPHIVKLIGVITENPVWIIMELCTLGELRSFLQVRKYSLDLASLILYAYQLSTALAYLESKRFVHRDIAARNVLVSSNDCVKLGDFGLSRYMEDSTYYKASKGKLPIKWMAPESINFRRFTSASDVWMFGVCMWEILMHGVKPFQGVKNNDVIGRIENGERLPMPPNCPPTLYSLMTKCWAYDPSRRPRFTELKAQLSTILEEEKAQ
UniProt Q05397, whole entry: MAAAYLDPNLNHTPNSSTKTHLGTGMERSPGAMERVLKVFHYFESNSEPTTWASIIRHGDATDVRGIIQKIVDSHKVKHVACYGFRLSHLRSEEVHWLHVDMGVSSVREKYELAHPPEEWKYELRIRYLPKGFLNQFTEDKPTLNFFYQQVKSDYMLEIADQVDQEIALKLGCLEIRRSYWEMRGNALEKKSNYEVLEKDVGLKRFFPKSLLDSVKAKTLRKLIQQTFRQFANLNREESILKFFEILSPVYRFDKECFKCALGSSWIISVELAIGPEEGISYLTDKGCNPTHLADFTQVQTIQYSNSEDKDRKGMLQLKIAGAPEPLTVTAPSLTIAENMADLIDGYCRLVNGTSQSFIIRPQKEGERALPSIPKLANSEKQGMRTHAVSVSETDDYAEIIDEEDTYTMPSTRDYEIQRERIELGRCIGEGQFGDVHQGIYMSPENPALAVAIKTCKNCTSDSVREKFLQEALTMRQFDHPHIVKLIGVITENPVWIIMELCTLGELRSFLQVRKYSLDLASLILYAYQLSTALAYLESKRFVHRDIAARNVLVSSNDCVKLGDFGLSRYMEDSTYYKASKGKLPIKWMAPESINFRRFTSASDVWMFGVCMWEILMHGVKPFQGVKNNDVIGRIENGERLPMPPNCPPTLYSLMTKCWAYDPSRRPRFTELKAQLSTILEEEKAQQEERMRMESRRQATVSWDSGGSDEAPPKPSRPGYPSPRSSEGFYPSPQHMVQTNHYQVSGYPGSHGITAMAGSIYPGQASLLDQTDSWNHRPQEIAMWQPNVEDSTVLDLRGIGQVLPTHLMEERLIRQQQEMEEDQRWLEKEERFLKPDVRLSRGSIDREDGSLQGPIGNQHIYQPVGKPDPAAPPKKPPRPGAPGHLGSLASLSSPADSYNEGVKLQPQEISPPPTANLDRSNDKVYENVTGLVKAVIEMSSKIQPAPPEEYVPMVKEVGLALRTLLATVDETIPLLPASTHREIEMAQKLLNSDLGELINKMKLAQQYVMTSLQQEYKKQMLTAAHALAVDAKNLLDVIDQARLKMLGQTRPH
UniProt P35916, other isoform, or with tags, fused parts or gaps: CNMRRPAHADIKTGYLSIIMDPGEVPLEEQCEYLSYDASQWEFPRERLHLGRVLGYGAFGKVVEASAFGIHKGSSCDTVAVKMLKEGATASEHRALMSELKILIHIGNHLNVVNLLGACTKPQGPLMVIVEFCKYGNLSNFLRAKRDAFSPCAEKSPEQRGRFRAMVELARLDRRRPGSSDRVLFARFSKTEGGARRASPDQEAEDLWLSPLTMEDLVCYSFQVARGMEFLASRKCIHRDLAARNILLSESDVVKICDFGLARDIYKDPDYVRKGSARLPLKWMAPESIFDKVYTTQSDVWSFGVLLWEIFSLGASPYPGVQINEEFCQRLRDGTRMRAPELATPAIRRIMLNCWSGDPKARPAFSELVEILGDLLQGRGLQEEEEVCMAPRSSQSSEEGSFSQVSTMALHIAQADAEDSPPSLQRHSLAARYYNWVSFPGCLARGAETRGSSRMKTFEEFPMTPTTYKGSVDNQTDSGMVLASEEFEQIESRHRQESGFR
UniProt P35916, 25-1363: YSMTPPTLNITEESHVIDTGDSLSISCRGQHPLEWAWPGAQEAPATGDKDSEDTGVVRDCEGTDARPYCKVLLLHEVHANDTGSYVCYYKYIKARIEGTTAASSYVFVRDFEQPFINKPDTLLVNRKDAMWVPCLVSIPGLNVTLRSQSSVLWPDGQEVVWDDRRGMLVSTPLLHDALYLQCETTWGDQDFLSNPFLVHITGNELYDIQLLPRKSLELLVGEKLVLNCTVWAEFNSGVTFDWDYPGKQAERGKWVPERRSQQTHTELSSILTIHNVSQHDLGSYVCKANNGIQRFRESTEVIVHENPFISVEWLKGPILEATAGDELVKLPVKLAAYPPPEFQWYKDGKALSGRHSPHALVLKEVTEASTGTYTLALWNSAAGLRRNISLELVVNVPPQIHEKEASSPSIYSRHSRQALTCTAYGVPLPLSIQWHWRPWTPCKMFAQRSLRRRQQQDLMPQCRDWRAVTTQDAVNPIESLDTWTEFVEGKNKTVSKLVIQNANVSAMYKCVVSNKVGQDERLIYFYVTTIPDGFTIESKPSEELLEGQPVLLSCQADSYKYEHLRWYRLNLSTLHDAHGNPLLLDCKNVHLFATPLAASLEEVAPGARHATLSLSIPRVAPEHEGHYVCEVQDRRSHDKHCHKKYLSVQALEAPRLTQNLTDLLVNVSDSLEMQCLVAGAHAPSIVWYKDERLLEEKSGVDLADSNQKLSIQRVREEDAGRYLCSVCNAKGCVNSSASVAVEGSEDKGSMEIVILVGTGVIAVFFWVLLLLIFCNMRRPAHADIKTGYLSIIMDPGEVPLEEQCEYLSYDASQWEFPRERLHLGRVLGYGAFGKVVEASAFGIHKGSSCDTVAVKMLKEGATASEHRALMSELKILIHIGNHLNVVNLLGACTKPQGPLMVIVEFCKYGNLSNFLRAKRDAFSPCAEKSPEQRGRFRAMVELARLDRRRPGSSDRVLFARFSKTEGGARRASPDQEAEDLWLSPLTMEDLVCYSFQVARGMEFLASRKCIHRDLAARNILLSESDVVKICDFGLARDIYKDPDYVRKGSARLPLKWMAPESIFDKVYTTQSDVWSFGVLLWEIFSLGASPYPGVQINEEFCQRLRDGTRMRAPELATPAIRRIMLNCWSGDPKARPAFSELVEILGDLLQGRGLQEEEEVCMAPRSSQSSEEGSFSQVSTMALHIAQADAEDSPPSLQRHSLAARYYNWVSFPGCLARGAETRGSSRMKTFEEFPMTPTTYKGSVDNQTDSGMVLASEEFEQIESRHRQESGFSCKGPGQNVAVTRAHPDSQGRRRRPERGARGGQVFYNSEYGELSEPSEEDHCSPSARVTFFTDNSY
UniProt P35916, with tags, fused parts or gaps DEL949-1002: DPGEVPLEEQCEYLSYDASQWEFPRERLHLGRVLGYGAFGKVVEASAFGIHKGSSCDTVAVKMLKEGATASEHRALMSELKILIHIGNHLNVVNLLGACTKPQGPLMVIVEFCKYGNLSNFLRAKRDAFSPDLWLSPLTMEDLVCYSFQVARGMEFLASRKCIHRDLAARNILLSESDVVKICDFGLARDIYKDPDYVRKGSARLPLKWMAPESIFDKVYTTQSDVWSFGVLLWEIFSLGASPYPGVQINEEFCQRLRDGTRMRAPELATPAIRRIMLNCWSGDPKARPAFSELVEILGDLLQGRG

What was measured:
MDA-231-LNA cells = assay: cells; details: 72 h
[1] = target: FAK enzyme (catalytic domain, amino acids 411-686) (Homo sapiens, UniProt Q05397); assay: biochemical
[2] = target: N-terminally GST-fused purified FAK enzyme (Homo sapiens, UniProt Q05397); assay: biochemical
[3] = target: VEGFR3 cytoplasmic domain (Homo sapiens, UniProt P35916); assay: biochemical
[4] = target: Phospho VEGFR3 (Flt4) in HMVEC-dLyAD cells (Homo sapiens, UniProt P35916); assay: Flt4 Phospho ELISA assay
[5] = target: VEGFR3 cytoplasmic domain (Homo sapiens, UniProt P35916, DEL949-1002); assay: biochemical

Structure (SMILES) | IC50 (MDA-231-LNA cells) [nM] | IC50 [1] [nM] | Kd [2] [nM] | IC50 [3] [nM] | IC50 [4] [nM] | IC50 [5] [nM]
CN1CCC(c2ccc(Nc3ncc(C(F)(F)F)c(CCc4ncncc4CC(N)=O)n3)cc2)CC1 [Compound 30] | > 5000 | 11 | 5.7 | 7 | 658 | –
CN1CCC(c2ccc(Nc3ncc(C(F)(F)F)c(CCc4nccnc4CC(N)=O)n3)cc2)CC1 [Compound 27] | 2810 | 7.2 | 16.6 | 30 | – | –
CN1CCc2cc(Nc3ncc(C(F)(F)F)c(CCc4ccccc4CC(N)=O)n3)ccc2C1 [Compound 28] | – | – | – | 10 | – | –
CCN1CCN(c2ccc(Nc3ncc(C(F)(F)F)c(CCc4ccccc4CC(N)=O)n3)cc2)CC1 [Compound 10, 2-(2-(2-(2-((4-(4-Ethylpiperazin-1-yl)phenyl)amino)-5-(trifluoromethyl)pyrimidin-4-yl)ethyl)phenyl)acetamide] | 1430 | – | – | – | – | –
CC(=O)N1CCC(c2ccc(Nc3ncc(C(F)(F)F)c(CCc4ccccc4CC(N)=O)n3)cc2)CC1 [Compound 23, 2-(2-(2-(2-((4-(1-Acetylpiperidin-4-yl)phenyl)amino)-5-(trifluoromethyl)pyrimidin-4-yl)ethyl)phenyl)acetamide] | – | 0.39 | 1.3 | 12 | – | –
CC(=O)N1CCN(c2ccc(Nc3ncc(C(F)(F)F)c(CCc4ccccc4CC(N)=O)n3)cc2)CC1 [Compound 13, 2-(2-(2-(2-((4-(4-Acetylpiperazin-1-yl)phenyl)amino)-5-(trifluoromethyl)pyrimidin-4-yl)ethyl)phenyl)acetamide] | > 1000 | 0.6 | 0.47 | 70 | – | –
CCN1CCCC(c2ccc(Nc3ncc(C(F)(F)F)c(CCc4ncccc4CC(N)=O)n3)cc2)C1 (stereo not shown) [Compound 40, 2-(2-(2-(2-((4-(1-Ethylpiperidin-3-yl)phenyl)amino)-5-(trifluoromethyl)pyrimidin-4-yl)ethyl)pyridin-3-yl)acetamide] | – | 51 | – | – | – | 46
NC(=O)Cc1cccnc1CCc1nc(Nc2ccc(C3CCCNC3)cc2)ncc1C(F)(F)F (stereo not shown) [Compound 39, 2-(2-(2-(2-((4-(Piperidin-3-yl)phenyl)amino)-5-(trifluoromethyl)pyrimidin-4-yl)ethyl)pyridin-3-yl)acetamide] | – | 14 | – | – | – | 23
CCN1CCC(c2ccc(Nc3ncc(C(F)(F)F)c(CCc4ncccc4CC(N)=O)n3)cc2)CC1 [Compound 38, 2-(2-(2-(2-((4-(1-Ethylpiperidin-4-yl)phenyl)amino)-5-(trifluoromethyl)pyrimidin-4-yl)ethyl)pyridin-3-yl)acetamide] | – | 23 | – | – | – | 23
NC(=O)Cc1ccccc1CCc1nc(Nc2ccc(CN3CCNCC3)cc2)ncc1C(F)(F)F [Compound 25, 2-(2-(2-(2-((4-(piperazin-1-ylmethyl)phenyl)amino)-5-(trifluoromethyl)pyrimidin-4-yl)ethyl)phenyl)acetamide] | – | 3 | 1.1 | 14 | 66 | –
CN(C)C1CCN(c2ccc(Nc3ncc(C(F)(F)F)c(CCc4ccccc4CC(N)=O)n3)cc2)CC1 [Compound 24] | 1700 | 0.77 | 0.77 | 3.9 | 71 | –
NC(=O)Cc1ccccc1CCc1nc(Nc2ccc(C3CCNC3)cc2)ncc1C(F)(F)F (stereo not shown) [Compound 35, 2-(2-(2-(2-((4-(Pyrrolidin-3-yl)phenyl)amino)-5-(trifluoromethyl)pyrimidin-4-yl)ethyl)phenyl)acetamide] | – | 7.7 | 1.6 | – | – | 53
CCN1CCC(c2ccc(Nc3ncc(C(F)(F)F)c(CCc4ccccc4CC(N)=O)n3)cc2)CC1 [Compound 31, 2-(2-(2-(2-((4-(1-Ethylpiperidin-4-yl)phenyl)amino)-5-(trifluoromethyl)pyrimidin-4-yl)ethyl)phenyl)acetamide] | – | 3.6 | – | – | – | –
NC(=O)Cc1cccnc1CCc1nc(Nc2ccc(C3CCNCC3)cc2)ncc1C(F)(F)F [Compound 32, 2-(2-(2-(2-((4-(Piperidin-4-yl)phenyl)amino)-5-(trifluoromethyl)pyrimidin-4-yl)ethyl)pyridin-3-yl)acetamide] | – | 3.5 | 2.5 | – | – | 5.1
